Assay results: patent US20220396624A1 (HC BIOPHARMA SHANGHAI, published 2022)

Legend:
[1] = molecular target: human PD-L1 on 293T-h-PDL1 cells (human) (UniProt Q9NZQ7); assay: FACS, hybridoma culture supernatant on 293T-h-PDL1 cells
[2] = molecular target: fusion protein of the extracellular region of human PD-L1 and human IgG1-FC (human) (UniProt Q9NZQ7); assay: FACS blocking of PD-L1-hFc binding to 293T-h-PD1 cells, hybridoma supernatant

EC50 [1]: 0.543 µg/mL
IC50 [2]: 3.42 µg/mL
Substance: murine antibody 4G7 (A7) (antibody; other documents disagree on this pair)
